In patent US20260116920A1, “HUMAN TRANSFERRIN RECEPTOR BINDING PEPTIDE” (PEPTIDREAM INC., priority 2021, published 2026):
Read-outs that look alike come from different tables or passages of the source.

By UniProt entry, the sequences of proteins in these tests, tags left out. Residues count along the entry.
UniProt P02786, 89-760 limits assumed: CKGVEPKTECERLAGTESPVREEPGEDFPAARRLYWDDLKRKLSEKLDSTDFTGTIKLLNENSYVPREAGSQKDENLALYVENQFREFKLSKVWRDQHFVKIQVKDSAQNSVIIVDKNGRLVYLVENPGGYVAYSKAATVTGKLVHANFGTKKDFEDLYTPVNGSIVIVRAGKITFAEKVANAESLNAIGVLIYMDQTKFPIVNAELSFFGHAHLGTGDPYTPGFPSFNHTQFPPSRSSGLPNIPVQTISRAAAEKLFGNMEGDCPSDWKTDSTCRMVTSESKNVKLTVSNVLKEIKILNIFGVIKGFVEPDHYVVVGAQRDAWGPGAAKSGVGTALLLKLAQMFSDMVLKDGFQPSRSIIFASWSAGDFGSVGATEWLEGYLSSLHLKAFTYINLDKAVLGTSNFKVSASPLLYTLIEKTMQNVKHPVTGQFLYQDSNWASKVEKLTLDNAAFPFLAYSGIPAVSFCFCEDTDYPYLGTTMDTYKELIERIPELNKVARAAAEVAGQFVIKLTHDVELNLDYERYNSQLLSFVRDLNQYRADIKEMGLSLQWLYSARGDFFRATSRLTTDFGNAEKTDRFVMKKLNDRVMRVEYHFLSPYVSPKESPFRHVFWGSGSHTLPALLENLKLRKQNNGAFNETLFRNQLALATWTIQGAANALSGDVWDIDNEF

Target: T1, human transferrin receptor (hTfR) (Homo sapiens, UniProt P02786)
T1 construct: made in house
Assay: Evaluation of molecular interaction between transferrin receptor (hTfR) and peptide using surface plasmon resonance (SPR)
Assay type: binding
Details: read-out: SPR
How it was run: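 Binding kinetics of peptides to immobilized recombinant human TfR dimer were measured by SPR at 5–100 nM in a single-cycle format, with KD obtained from curve fitting.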

[1] = KD class of the peptide with linker for hTfR by surface plasmon resonance
[2] = KD class of peptide with linker binding to hTfR, by SPR (TABLE 5)

| Kd [1] [nM] | Kd [2] [nM] | Compound |
| --- | --- | --- |
| 1 to 100 |  | CC[C@H](C)[C@@H]1NC(=O)[C@H](Cc2ccc(OCC(=O)O)cc2)NC(=O)[C@H](Cc2ccc(O)cc2)NC(=O)[C@H](CC(N)=O)NC(=O)[C@H](Cc2cn(CC(=O)O)c3ccccc23)NC(=O)[C@H](C(C)C)NC(=O)[C@H](Cc2cccc(Cl)c2)N(C)C(=O)[C@H](C(C)C)NC(=O)[C@H](C)NC(=O)CSC[C@@H](C(=O)NCC(=O)N[C@H](CCC(=O)O)C(=O)N[C@H](CCC(=O)O)C(=O)N[C@H](CCC(=O)O)C(=O)N[C@H](CO)C(=O)N[C@H](CO)C(=O)N[C@@H](CCCCN)C(N)=O)NC(=O)[C@H](Cc2ccc(O)cc2)N(C)C(=O)[C@H](Cc2ccncc2)NC(=O)[C@H](CCCCN2CCOCC2)NC(=O)[C@H](CCC(=O)NCCOCCOCCOCCOCCOCCOCCOCCOC)NC(=O)[C@H]([C@@H](C)CC)NC1=O [compound 306] |
| 1 to 100 |  | CC[C@H](C)[C@@H]1NC(=O)[C@H](Cc2ccc(OCC(=O)O)cc2)NC(=O)[C@H](Cc2ccc(O)cc2)NC(=O)[C@H](CC(N)=O)NC(=O)[C@H](Cc2cn(CC(=O)O)c3ccccc23)NC(=O)[C@H](C(C)C)NC(=O)[C@H](Cc2cccc(Cl)c2)N(C)C(=O)[C@H](C(C)C)NC(=O)[C@H](C)NC(=O)CSC[C@@H](C(=O)NCC(=O)N[C@H](CCC(=O)O)C(=O)N[C@H](CCC(=O)O)C(=O)N[C@H](CCC(=O)O)C(=O)N[C@H](CO)C(=O)N[C@H](CO)C(=O)N[C@@H](CCCCN)C(N)=O)NC(=O)[C@H](Cc2ccc(O)cc2)N(C)C(=O)[C@H](Cc2cccc(C(=O)O)c2)NC(=O)[C@H](CCCCN2CCOCC2)NC(=O)[C@H](CCCCN2CCOCC2)NC(=O)[C@H]([C@@H](C)CC)NC1=O [compound 307] |
| 1 to 100 |  | CC[C@H](C)[C@@H]1NC(=O)[C@H](Cc2ccc(OCC(=O)O)cc2)NC(=O)[C@H](Cc2ccc(O)cc2)NC(=O)[C@H](CC(N)=O)NC(=O)[C@H](Cc2cn(CC(=O)O)c3ccccc23)NC(=O)[C@H](C(C)C)NC(=O)[C@H](Cc2cccc(Cl)c2)N(C)C(=O)[C@H](C(C)C)NC(=O)[C@H](C)NC(=O)CSC[C@@H](C(=O)NCC(=O)N[C@H](CO)C(=O)N[C@H](CO)C(=O)N[C@H](CO)C(=O)N[C@H](CO)C(=O)N[C@H](CO)C(=O)N[C@@H](CCCCN)C(N)=O)NC(=O)[C@H](Cc2ccc(O)cc2)N(C)C(=O)[C@H](Cc2ccncc2)NC(=O)[C@H](CCCCN2CCOCC2)NC(=O)[C@H](CCC(=O)NCCOCCOCCOCCOCCOCCOCCOCCOC)NC(=O)[C@H]([C@@H](C)CC)NC1=O [compound 308] |
| 1 to 100 |  | CC[C@H](C)[C@@H]1NC(=O)[C@H](Cc2ccc(OCC(=O)O)cc2)NC(=O)[C@H](Cc2ccc(O)cc2)NC(=O)[C@H](CC(N)=O)NC(=O)[C@H](Cc2cn(CC(=O)O)c3ccccc23)NC(=O)[C@H](C(C)C)NC(=O)[C@H](Cc2cccc(Cl)c2)N(C)C(=O)[C@H](C(C)C)NC(=O)[C@H](C)NC(=O)CSC[C@@H](C(=O)NCC(=O)N[C@H](CO)C(=O)N[C@H](CO)C(=O)N[C@H](CO)C(=O)N[C@H](CO)C(=O)N[C@H](CO)C(=O)N[C@@H](CCCCNC(C)=O)C(N)=O)NC(=O)[C@H](Cc2ccc(O)cc2)N(C)C(=O)[C@H](Cc2cccc(C(=O)O)c2)NC(=O)[C@H](CCCCN2CCOCC2)NC(=O)[C@H](CCCCN2CCOCC2)NC(=O)[C@H]([C@@H](C)CC)NC1=O [compound 309] |
| 1 to 100 |  | CC[C@H](C)[C@@H]1NC(=O)[C@H](Cc2ccc(OCC(=O)O)cc2)NC(=O)[C@H](Cc2ccc(O)cc2)NC(=O)[C@H](CC(N)=O)NC(=O)[C@H](Cc2cn(CC(=O)O)c3ccccc23)NC(=O)[C@H](C(C)C)NC(=O)[C@H](Cc2cccc(Cl)c2)N(C)C(=O)[C@H](C(C)C)NC(=O)[C@H](C)NC(=O)CSC[C@@H](C(=O)NCC(=O)N[C@H](CO)C(=O)N[C@H](CO)C(=O)N[C@H](CO)C(=O)N[C@H](CCC(=O)O)C(=O)N[C@H](CCC(=O)O)C(=O)N[C@@H](CCCCNC(C)=O)C(N)=O)NC(=O)[C@H](Cc2ccc(O)cc2)N(C)C(=O)[C@H](Cc2ccccc2)NC(=O)[C@H](CCCNC(=N)N)NC(=O)[C@H](CCCNC(=N)N)NC(=O)[C@H]([C@@H](C)CC)NC1=O [compound 310] |
|  | 1 to 100 | CC[C@H](C)[C@@H]1NC(=O)[C@H](Cc2ccc(OCC(=O)O)cc2)NC(=O)[C@H](Cc2ccc(O)cc2)NC(=O)[C@H](CC(N)=O)NC(=O)[C@H](Cc2cn(CC(=O)O)c3ccccc23)NC(=O)[C@H](C(C)C)NC(=O)[C@H](Cc2cccc(Cl)c2)N(C)C(=O)[C@H](C(C)C)NC(=O)[C@H](C)NC(=O)CSC[C@@H](C(=O)NCC(=O)N[C@H](CO)C(=O)N[C@H](CO)C(=O)N[C@H](CCC(=O)O)C(=O)N[C@H](CCC(=O)O)C(=O)N[C@H](CO)C(=O)N[C@@H](CCCCNC(C)=O)C(N)=O)NC(=O)[C@H](Cc2ccc(O)cc2)N(C)C(=O)[C@H](Cc2ccccc2)NC(=O)[C@H](CCCNC(=N)N)NC(=O)[C@H](CCCNC(=N)N)NC(=O)[C@H]([C@@H](C)CC)NC1=O [compound 311] |
|  | < 1 | CC[C@H](C)[C@@H]1NC(=O)[C@H](Cc2ccc(OCC(=O)O)cc2)NC(=O)[C@H](Cc2ccc(O)cc2)NC(=O)[C@H](CC(N)=O)NC(=O)[C@H](Cc2cn(CC(=O)O)c3ccccc23)NC(=O)[C@H](C(C)C)NC(=O)[C@H](Cc2cccc(Cl)c2)N(C)C(=O)[C@H](C(C)C)NC(=O)[C@H](C)NC(=O)CSC[C@@H](C(=O)NCC(=O)N[C@H](CO)C(=O)N[C@H](CO)C(=O)N[C@H](CCC(=O)O)C(=O)N[C@H](CO)C(=O)N[C@H](CCC(=O)O)C(=O)N[C@@H](CCCCNC(C)=O)C(N)=O)NC(=O)[C@H](Cc2ccc(O)cc2)N(C)C(=O)[C@H](Cc2ccccc2)NC(=O)[C@H](CCCNC(=N)N)NC(=O)[C@H](CCCNC(=N)N)NC(=O)[C@H]([C@@H](C)CC)NC1=O [compound 312] |
|  | 1 to 100 | CC[C@H](C)[C@@H]1NC(=O)[C@H](Cc2ccc(OCC(=O)O)cc2)NC(=O)[C@H](Cc2ccc(O)cc2)NC(=O)[C@H](CC(N)=O)NC(=O)[C@H](Cc2cn(CC(=O)O)c3ccccc23)NC(=O)[C@H](C(C)C)NC(=O)[C@H](Cc2cccc(Cl)c2)N(C)C(=O)[C@H](C(C)C)NC(=O)[C@H](C)NC(=O)CSC[C@@H](C(=O)NCC(=O)N[C@H](CCC(=O)O)C(=O)N[C@H](CO)C(=O)N[C@H](CO)C(=O)N[C@H](CCC(=O)O)C(=O)N[C@H](CO)C(=O)N[C@@H](CCCCNC(C)=O)C(N)=O)NC(=O)[C@H](Cc2ccc(O)cc2)N(C)C(=O)[C@H](Cc2ccccc2)NC(=O)[C@H](CCCNC(=N)N)NC(=O)[C@H](CCCNC(=N)N)NC(=O)[C@H]([C@@H](C)CC)NC1=O [compound 313] |
|  | 1 to 100 | CC[C@H](C)[C@@H]1NC(=O)[C@H](Cc2ccc(OCC(=O)O)cc2)NC(=O)[C@H](Cc2ccc(O)cc2)NC(=O)[C@H](CC(N)=O)NC(=O)[C@H](Cc2cn(CC(=O)O)c3ccccc23)NC(=O)[C@H](C(C)C)NC(=O)[C@H](Cc2cccc(Cl)c2)N(C)C(=O)[C@H](C(C)C)NC(=O)[C@H](C)NC(=O)CSC[C@@H](C(=O)NCC(=O)N[C@H](CO)C(=O)N[C@H](CCC(=O)O)C(=O)N[C@H](CO)C(=O)N[C@H](CCC(=O)O)C(=O)N[C@H](CO)C(=O)N[C@@H](CCCCNC(C)=O)C(N)=O)NC(=O)[C@H](Cc2ccc(O)cc2)N(C)C(=O)[C@H](Cc2ccccc2)NC(=O)[C@H](CCCNC(=N)N)NC(=O)[C@H](CCCNC(=N)N)NC(=O)[C@H]([C@@H](C)CC)NC1=O [compound 314] |
